# Source: paper PMC9001978, “Determining the Effects of Differential Expression of GRKs and β-arrestins on CLR-RAMP Agonist Bias” (Frontiers in Physiology, 2022)
# Tested on: HEK293T cells
# Experiment: cAMP accumulation in HEK293T cells with endogenous CLR and RAMPs
# Type: cell-based
# Conditions: far lower potency than expected of CLR with any RAMP
smiles,measurement,value
"CC(C)C[C@H](NC(=O)CNC(=O)[C@H](C)NC(=O)[C@H](CC(C)C)NC(=O)[C@H](CCCNC(=N)N)NC(=O)[C@H](Cc1c[nH]cn1)NC(=O)[C@@H](NC(=O)[C@@H](NC(=O)[C@@H]1CSSC[C@H](NC(=O)[C@H](C)N)C(=O)N[C@@H](CC(=O)O)C(=O)N[C@@H]([C@@H](C)O)C(=O)N[C@@H](C)C(=O)N[C@@H]([C@@H](C)O)C(=O)N1)C(C)C)[C@@H](C)O)C(=O)N[C@@H](CC(C)C)C(=O)N[C@@H](CO)C(=O)N[C@@H](CCCNC(=N)N)C(=O)N[C@@H](CO)C(=O)NCC(=O)NCC(=O)N[C@H](C(=O)N[C@H](C(=O)N[C@@H](CCCCN)C(=O)N[C@@H](CC(N)=O)C(=O)N[C@@H](CC(N)=O)C(=O)N[C@@H](Cc1ccccc1)C(=O)N[C@H](C(=O)N1CCC[C@H]1C(=O)N[C@H](C(=O)N[C@@H](CC(N)=O)C(=O)N[C@H](C(=O)NCC(=O)N[C@@H](CO)C(=O)N[C@@H](CCCCN)C(=O)N[C@@H](C)C(=O)N[C@@H](Cc1ccccc1)C(N)=O)C(C)C)[C@@H](C)O)C(C)C)C(C)C)C(C)C [CGRP, calcitonin gene-related peptide]",cAMP response via endogenous low levels of CLR and RAMPs,small response
